Experimental data as given in patent US20020142945A1, “Immunomodulatory methods using carbohydrate antigens” (President and Fellows of Harvard College, priority 1998, published 2002).

System: splenocytes
Experiment: Cytokine production by cultured splenocytes of IP immunized mice (capture ELISA)
Assay type: in vivo
Method: Multivalent LNnT or Lewis^γ were conjugated with HSA (LNnT-HSA and Le^y-HSA) by Accurate Chemical and Scientific Corporation (NY). In both neoglycoproteins, 13 molecules of sugar conjugated to 1 HSA molecule. As controls, HSA (Sigma Chemical Co., Mo.), HSA adsorbed to alum (Intergen Company, NY; HSA-alum), or Dulbecco's PBS (Gibco BRL, NY) were prepared for immunization. Groups of four to six mice were immunized intraperitoneally or subcutaneously with Ags (10 μg of HSA) or saline. First and second boosting immunization were performed in the same fashion 2 and 3 weeks later, respectively. Protein concentration was determined by bicinchoninic acid (BCA) assay (Pierce, Ill.).
In flat-bottom 24-well culture plates (Corning), suspensions of 2.5×10^6 cells per ml were cultured with ConA (2 μg/ml) or without restimulation at 37° C. in supplemented RPMI 1640 medium as described above. 24, 72 and 120 hrs later, the cell cultures were then centrifuged, and the culture supernatants were harvested and kept frozen (−80° C.) until assayed. Pelleted cells were resuspended then stained with mAbs coupled to FITC or PE for immunofluorescent staining. IL-2, IL-4, IL-5, IL-10 and IFN-γ levels in supernatants from ConA-stimulated or unstimulated splenocytes were measured by capture ELISA. In brief, Maxisorp microtitre plates (Nunc Laboratories Ltd., Denmark) were coated with 50 μl of capture Ab at 2.0 μg/ml (rat anti-mouse IL-5, IL-10 and IFN-γ from Pharmingen and rat anti-mouse IL-4 from Endogen, Mass.) in Carbonate-bicarbonate buffer by overnight incubation at 4° C. Wells were then washed with PBS-T four times and blocked by addition of 10% FCS in PBS (2 hours, 37° C.). 50 μl of culture supernatants and appropriate recombinant standards were then added to individual well in duplicate. For standard curves, recombinant IL-5 (0 to 5,000 pg/ml), IL-10 (0 to 25,000 pg/ml), IFN-γ (0 to 20,000 pg/ml) (Pharmingen, Calif.) and IL-4 (0 to 1,500 pg/ml) (Endogen, Mass.) were used in duplicate. Following overnight incubation at 4° C., the wells were washed and appropriate 50 μl/well biotinylated detection Ab at 1 μg/ml (rat anti-mouse IL-5, IL-10 or IFN-γ from Pharmingin and rat anti-mouse IL-4 from Endogen) were added. For the detection of bound biotinylated Ab, 50 μl of streptavidin-alkaline phosphatase conjugate ( 1/2000, Pharmingen) was added to each well for 45 minutes, then washed. Level of cytokine in the wells was visualized by addition of p-nitrophenyl phosphate (Sigma) in glycine buffer. Absorbance was measured at 405 nm using a UVMax automatic microplate reader.

[1] = in vitro stimulation ConA, 72 hrs
[2] = in vitro stimulation none, 24 hrs
[3] = in vitro stimulation none, 72 hrs
[4] = in vitro stimulation none, 120 hrs
[5] = splenocytes of IP immunized mice, without restimulation
[6] = vs mice IP immunized with saline or HSA

Q: “LNnT-HSA: Multivalent lacto-N-neotetraose conjugated with human serum albumin; 13 molecules of sugar per HSA molecule” was tested. Which “amounts of IL-5 and IL-6 vs wild type BALB/C mice” value (IL-4 deficient mice, splenocytes without restimulation) did it give?
A: significantly lower

Q: What about the “IL-5, IL-6, and IFN-γ production by splenocytes” value (IL-4 deficient mice, without restimulation) of the same substance?
A: produced

Q: And the IFN-g [1]?
A: 3,358 ± 471 pg/ml and 5,917 ± 1,132 pg/ml

Q: And the IL-4 [1]?
A: 234.00 ± 28.15 pg/mL

Q: What about the IL-5 [1] of the same substance?
A: 671 ± 34 pg/mL

Q: And the IL-10 [1]?
A: 1,529 ± 361 pg/ml

Q: And the IL-4 [2]?
A: 63.74 ± 24.11 pg/mL

Q: What about the IL-5 [2] of the same substance?
A: 178 ± 5 pg/mL

Q: And the IFN-g [3]?
A: 2,090 ± 891 pg/ml

Q: What about the IL-2 [3] of the same substance?
A: 2,060 ± 286 pg/ml

Q: What about the IL-4 [3] of the same substance?
A: 479.07 ± 86.80 pg/mL

Q: And the IL-5 [3]?
A: 808 ± 93 pg/mL

Q: And the IL-10 [3]?
A: 1,068 ± 223 pg/ml

Q: What about the IFN-g [4] of the same substance?
A: 12,220 ± 1,251 pg/ml

Q: What about the IL-2 [4] of the same substance?
A: 63 ± 1 pg/mL

Q: What about the IL-4 [4] of the same substance?
A: 1,363.33 ± 259.70 pg/ml

Q: And the IL-5 [4]?
A: 3,018 ± 604 pg/ml

Q: And the IL-10 [4]?
A: 7,064 ± 1,381 pg/ml

Q: And the “amounts of IFN-γ compared to the wild type” value (spleen cells of IL-4 gene deficient BALB/C mice)?
A: same amounts

Q: What about the IL-2 (splenocytes of IP immunized mice, in vitro stimulation none, 24 hrs) of the same substance?
A: 209 ± 68 pg/mL

Q: And the “IL-2, IL-4, and IL-5 detected in culture supernatants as early as” value [5]?
A: 24 h

Q: What about the “IL-10 and IFN-γ detected as early as” value [5] of the same substance?
A: 72 h

Q: What about the “IFN-γ production in response to ConA” value [6] of the same substance?
A: but not IFN-γ

Q: What about the “IL4, IL-5, and IL-10 production in response to ConA” value [6] of the same substance?
A: significantly more

Values joined by “and” are separate entries in the source; they are usually repeats but may differ in a detail not shown here. Equal values may be shown once.
